This is an account of results in ChEMBL document CHEMBL1122768.

The structures appear in SMILES notation. Some compounds may have been tested in ways that are not shown here.

The data set can be described thus: Partition coefficient (logP). As to conditions: octanol/water.

Broadly, the logP is the decadic logarithm of the partition coefficient of the neutral form, usually between octanol and water.

For the compound `Cl.O=C1CCC2=C(CCN(CCc3ccccc3)C2)N1c1ccccc1`, the logP stood at 2.68.
